Source: patent publication US20090029366A1 (priority 2007, published 2009)

Amino acid sequences for entries named in this document (tags omitted).
UniProt O60741, whole entry: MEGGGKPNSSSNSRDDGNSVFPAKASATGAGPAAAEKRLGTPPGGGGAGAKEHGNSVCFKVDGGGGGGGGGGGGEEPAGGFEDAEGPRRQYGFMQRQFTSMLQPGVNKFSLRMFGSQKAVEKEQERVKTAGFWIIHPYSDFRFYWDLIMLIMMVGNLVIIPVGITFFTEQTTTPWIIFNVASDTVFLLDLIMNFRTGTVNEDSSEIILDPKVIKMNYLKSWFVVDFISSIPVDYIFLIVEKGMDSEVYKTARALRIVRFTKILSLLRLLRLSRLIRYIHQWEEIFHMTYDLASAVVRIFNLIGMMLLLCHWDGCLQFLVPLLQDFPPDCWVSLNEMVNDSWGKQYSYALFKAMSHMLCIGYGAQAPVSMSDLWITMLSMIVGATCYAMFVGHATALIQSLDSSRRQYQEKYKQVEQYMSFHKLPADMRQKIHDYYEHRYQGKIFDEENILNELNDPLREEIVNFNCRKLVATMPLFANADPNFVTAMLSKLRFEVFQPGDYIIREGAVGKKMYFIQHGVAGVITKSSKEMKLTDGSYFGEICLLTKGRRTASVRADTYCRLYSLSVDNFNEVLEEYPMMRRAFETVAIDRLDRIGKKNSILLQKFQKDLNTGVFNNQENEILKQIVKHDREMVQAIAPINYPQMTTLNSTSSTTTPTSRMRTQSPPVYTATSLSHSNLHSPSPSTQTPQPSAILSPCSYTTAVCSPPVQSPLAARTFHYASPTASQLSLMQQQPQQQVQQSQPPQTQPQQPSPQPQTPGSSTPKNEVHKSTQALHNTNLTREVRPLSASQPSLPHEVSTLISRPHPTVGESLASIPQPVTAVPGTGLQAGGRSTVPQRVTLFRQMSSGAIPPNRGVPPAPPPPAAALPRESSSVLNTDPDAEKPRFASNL

Target: human HCN1 (Homo sapiens, UniProt O60741)
Settings: CsCl 1 mM; HEK-293H human HCN1; current clamp

CsCl
reversal of hyperpolarization induced by low sodium/potassium diluent: reversed

This is a selection: effects in other tests are not listed, and their absence says nothing.
